Sequences of proteins named here, by UniProt entry; tags and fusion partners are left off.
Importin subunit beta-1 (Homo sapiens), Q14974, UniProt Q14974, whole entry, looked up: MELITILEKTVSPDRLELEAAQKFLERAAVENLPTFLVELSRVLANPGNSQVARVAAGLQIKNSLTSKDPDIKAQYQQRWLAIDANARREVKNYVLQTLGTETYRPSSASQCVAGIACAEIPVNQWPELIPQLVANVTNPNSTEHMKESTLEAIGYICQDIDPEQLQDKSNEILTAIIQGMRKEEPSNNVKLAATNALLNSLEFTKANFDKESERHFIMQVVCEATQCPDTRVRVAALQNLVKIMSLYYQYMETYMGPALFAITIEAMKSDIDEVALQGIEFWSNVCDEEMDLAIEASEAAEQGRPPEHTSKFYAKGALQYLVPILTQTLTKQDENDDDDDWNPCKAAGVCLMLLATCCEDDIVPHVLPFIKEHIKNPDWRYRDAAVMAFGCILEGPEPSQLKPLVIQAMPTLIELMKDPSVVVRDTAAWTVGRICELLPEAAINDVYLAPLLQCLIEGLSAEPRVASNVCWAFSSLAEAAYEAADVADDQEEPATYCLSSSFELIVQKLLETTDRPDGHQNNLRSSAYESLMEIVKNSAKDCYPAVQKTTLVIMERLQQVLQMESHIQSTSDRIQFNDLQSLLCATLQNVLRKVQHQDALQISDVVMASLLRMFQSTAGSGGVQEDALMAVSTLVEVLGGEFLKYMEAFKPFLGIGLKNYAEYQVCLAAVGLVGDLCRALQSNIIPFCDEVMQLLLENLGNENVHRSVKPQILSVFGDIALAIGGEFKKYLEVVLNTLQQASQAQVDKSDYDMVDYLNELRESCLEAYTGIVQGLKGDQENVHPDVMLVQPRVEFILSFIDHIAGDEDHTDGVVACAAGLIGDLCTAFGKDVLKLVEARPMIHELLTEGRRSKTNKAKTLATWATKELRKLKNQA
Histone acetyltransferase KAT2A (Homo sapiens), Q92830, UniProt Q92830, whole entry, looked up: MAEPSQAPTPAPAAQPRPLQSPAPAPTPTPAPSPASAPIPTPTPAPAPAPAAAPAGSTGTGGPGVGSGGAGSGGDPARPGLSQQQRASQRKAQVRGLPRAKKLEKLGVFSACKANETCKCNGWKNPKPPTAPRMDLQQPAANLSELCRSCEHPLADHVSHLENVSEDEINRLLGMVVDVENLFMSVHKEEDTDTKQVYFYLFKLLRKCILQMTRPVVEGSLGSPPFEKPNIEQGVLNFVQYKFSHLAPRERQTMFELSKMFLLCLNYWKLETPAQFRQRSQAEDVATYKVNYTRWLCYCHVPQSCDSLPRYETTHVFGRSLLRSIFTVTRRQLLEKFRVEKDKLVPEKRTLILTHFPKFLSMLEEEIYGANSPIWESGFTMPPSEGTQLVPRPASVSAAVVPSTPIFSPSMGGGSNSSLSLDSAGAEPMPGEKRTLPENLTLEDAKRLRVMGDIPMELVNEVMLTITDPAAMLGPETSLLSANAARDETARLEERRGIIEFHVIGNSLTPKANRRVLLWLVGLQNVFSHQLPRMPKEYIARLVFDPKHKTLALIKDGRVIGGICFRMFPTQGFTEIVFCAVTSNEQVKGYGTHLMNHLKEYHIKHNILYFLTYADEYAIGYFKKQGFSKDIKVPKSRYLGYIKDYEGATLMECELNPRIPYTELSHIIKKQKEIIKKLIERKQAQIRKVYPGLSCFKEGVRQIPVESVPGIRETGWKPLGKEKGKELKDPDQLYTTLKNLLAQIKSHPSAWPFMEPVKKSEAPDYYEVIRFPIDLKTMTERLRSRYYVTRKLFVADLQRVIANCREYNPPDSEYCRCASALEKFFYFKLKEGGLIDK
Serine/threonine-protein kinase PLK1 (Homo sapiens), P53350, UniProt P53350, whole entry, looked up: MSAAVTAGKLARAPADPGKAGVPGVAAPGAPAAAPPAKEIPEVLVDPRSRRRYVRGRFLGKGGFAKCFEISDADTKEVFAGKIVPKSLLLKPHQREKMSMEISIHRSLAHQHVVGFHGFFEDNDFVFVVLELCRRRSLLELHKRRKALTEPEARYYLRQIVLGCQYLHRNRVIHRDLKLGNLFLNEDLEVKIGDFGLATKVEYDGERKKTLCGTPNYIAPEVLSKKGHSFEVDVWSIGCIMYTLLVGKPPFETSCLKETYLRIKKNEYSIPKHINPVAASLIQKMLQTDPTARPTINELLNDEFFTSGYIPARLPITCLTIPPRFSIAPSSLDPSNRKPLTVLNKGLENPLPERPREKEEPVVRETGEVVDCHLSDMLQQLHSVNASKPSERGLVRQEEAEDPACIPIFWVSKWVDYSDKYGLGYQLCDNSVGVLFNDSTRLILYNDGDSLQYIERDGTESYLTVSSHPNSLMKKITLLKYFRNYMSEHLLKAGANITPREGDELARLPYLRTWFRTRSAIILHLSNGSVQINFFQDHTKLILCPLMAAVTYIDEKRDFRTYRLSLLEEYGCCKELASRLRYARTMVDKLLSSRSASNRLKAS

# Most compounds without a hit are left out; they make up all but 3.6% or so of the library.
# Rango release inh = qHTS Assay for Inhibitors of RanGTP induced Rango (Ran-regulated importin-beta cargo) - Importin beta complex dissociation; Biochemical FRET Rango-importin beta, RanGTP-induced dissociation; AID 540253, 2011; Potency, µM (doses to about 46.1 µM), for the others: at the highest dose activity change, negative = inhibition; Snurportin-1 (Homo sapiens) + GTP-binding nuclear protein Ran (Homo sapiens) + Importin …; hit rate 0.071% among 340,000; calls by dose curve; further: potency means the concentration at half of the fitted maximal effect; % of control where 0% means no effect; nearly all actives have a fitted effect of over 45% in size
#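 Two FRET readings bracket the reaction: one 5 min after compound meets Rango–importin beta, another 45 min after RanGTP-RCC1 (0.6 uM Ran, 0.2 uM RCC1, 2 mM GTP) is added. Only the second defines inhibition.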
# Rango complex inh = qHTS Assay for Inhibitors of Rango (Ran-regulated importin-beta cargo) - Importin beta complex formation; Importin subunit beta-1 (Homo sapiens), Q14974; Rango CFP/YFP FRET sensor + importin beta, 45 min; Potency, µM (top dose mostly 92.2 µM), for the others: at the top dose inhibition of complex formation; hit rate 0.031% among 340,000; calls by dose curve;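 further: potency means the concentration at half of the fitted maximal effect; 0% = DMSO wells and 100% = buffer wells lacking importin beta; nearly all actives have a fitted effect of over 15% in size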
#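 FRET biosensor (snurportin 1 IBB flanked by EYFP and cerulean), 50 nM, with compound 5 min, then 0.125 microM importin beta in PBS, 1 mM DTT, 0.02% Tween-20, 0.1% BSA. CFP/YFP ratio read after 45 min at room temperature; pre-read flags interference.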
# GCN5L2 inh = qHTS Assay for Inhibitors of GCN5L2. Histone acetyltransferase KAT2A (Homo sapiens), Q92830. GCN5L2 HAT assay, ThioGlo1 CoA-SH fluorescence. Potency, µM (highest dose often 58.9 µM), inactives show at the highest dose activity change, negative = inhibition, usual class: inhibitors. hit rate 0.21% among 390,000. AID 504327, 2011; further: potency means the concentration at half of the fitted maximal effect; on the % scale 0 is the no-effect control and ±100 the full control effect
#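 Titration-based screen in which CoA formation is detected via maleimide probe ThioGlo1 (50uM) turning fluorescent on thiol reaction; substrates H3(1-25) 75uM and acetyl-CoA 70uM, GCN5L2 20nM, 20 min incubation at room temperature.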
# VDR inh = Inhibitors of the vitamin D receptor (VDR): qHTS; Potency, µM, without a hit: max response, negative = inhibition, most hits filed as inhibitors; VDR-SRC2-3 peptide fluorescence polarization, 2 h; Vitamin D3 receptor (Homo sapiens), P11473; AID 504847, 2011; hit rate 0.93% among 400,000; further: potency means the concentration at half of the fitted maximal effect; on the % scale 0 is the no-effect control and ±100 the full control effect
#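 VDR–SRC2-3 interaction, FP format. Cmpds 23 nl via pintool, brief spin, 2 h ambient incubation.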
# PI5P4Ka inh = qHTS for Inhibitors of phosphatidylinositol 5-phosphate 4-kinase (PI5P4K); Phosphatidylinositol 5-phosphate 4-kinase type-2 alpha (Homo sapiens), P48426; PI5P4Kalpha enzyme, ADP-Glo luminescence, 60 min; active compounds read low; max response, %; hit rate 1.2% among 330,000; active means max response of -50% or lower; inconclusive means between -30% and -50%; inactive means -30% or higher; further: value at the top dose of about 77 µM; on the % scale 0 is the no-effect control and ±100 the full control effect
#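 Luminescence from ADP-Glo served as readout of PI5P4Kalpha activity in a qHTS format. Reaction: enzyme, substrate, compound, ATP at 5 microM final, 60 min at RT.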
# PLK1 PBD block = qHTS for Inhibitors of PLK1-PDB (polo-like kinase 1 - polo-box domain): Primary Screen. Serine/threonine-protein kinase PLK1 (Homo sapiens), P53350. Plk1 PBD binding of FITC phosphopeptide, fluorescence polarization. Potency, µM, for inactives: max response, negative = inhibition, most hits filed as inhibitors. hit rate 2.8% among 360,000; further: potency means the concentration at half of the fitted maximal effect; series mostly up to about 57 µM; on the % scale 0 is the no-effect control and ±100 the full control effect; nearly all actives have a fitted effect of over 65% in size
# * = called active by the depositor; ? = inconclusive; . = not tested or not shown; ! = not confirmed by another sample. Unless noted, the call rests on the fitted dose curve; in most records, active means well fitted curve in the direction sought with a large enough effect; inconclusive means small, poorly fitted or top-dose-only effect, or another doubt; inactive means no such curve, though single readings can be large; an effect the other way counts as inactive or inconclusive.
SMILES,Rango release inh,Rango complex inh,GCN5L2 inh,VDR inh,PI5P4Ka inh,PLK1 PBD block
C#CCOCCOCCOCCNc1nc(N2CCN(C(=O)CCCCCCCCCCNC(=O)[C@H](CO)n3cc(CCCCCN)nn3)CC2)nc(N2CCN(C(=O)CCCCCCCCCCNC(=O)[C@H](CCCN=C(N)N)n3cc(C[C@@H](C)CC)nn3)CC2)n1,.,.,-12%,.,.,.
C#CCOCCOCCOCCNc1nc(N2CCN(C(=O)CCCCCCCCCCNC(=O)[C@@H](CCSC)n3cc(CCO)nn3)CC2)nc(N2CCN(C(=O)CCCCCCCCCCNC(=O)[C@H](CCCN=C(N)N)n3cc(C[C@@H](C)CC)nn3)CC2)n1,-9%,1%,-6%,95%,-79*,15%
C#CCOCCOCCOCCNc1nc(N2CCN(C(=O)CCCCCCCCCCNC(=O)[C@H]([C@@H](C)CC)n3cc(CCCCN=C(N)N)nn3)CC2)nc(N2CCN(C(=O)CCCCCCCCCCNC(=O)[C@@H]([C@H](C)O)n3cc(C)nn3)CC2)n1,-3%,11%,-16%,84%,-84*,0%
C#CCOCCOCCOCCNc1nc(N2CCN(C(=O)CCCCCCCCCCNC(=O)[C@H]([C@@H](C)CC)n3cc(CCCCN=C(N)N)nn3)CC2)nc(N2CCN(C(=O)CCCCCCCCCCNC(=O)[C@H](CCCN=C(N)N)n3cc(C[C@@H](C)CC)nn3)CC2)n1,.,.,-14%,.,.,.
C#CCOCCOCCOCCNc1nc(N2CCN(C(=O)CCCCCCCCCCNC(=O)[C@H](CCCCN)n3cc(C[C@@H](C)CC)nn3)CC2)nc(N2CCN(C(=O)CCCCCCCCCCNC(=O)[C@H](CCCN=C(N)N)n3cc(C[C@@H](C)CC)nn3)CC2)n1,?,65µM*,-13%,76%,-90*,9%
Cc1c(-c2cccc(NC(=O)Nc3ccccc3)c2)nc2ncccn12,.,.,-12%,-2%,.,.
COc1ccc(S(=O)(=O)Oc2c(OC)cc(C(=S)N3CCOCC3)cc2OC)cc1,-3%,-2%,-9%,?,-5,27µM*
COc1cc(C(=S)N2CCCC2)ccc1OS(=O)(=O)c1ccc(NC(C)=O)cc1,0%,0%,-3%,1%,-2,-17%
COc1cc(C(=S)N2CCCC2)cc(OC)c1OS(=O)(=O)c1ccc(NC(C)=O)cc1,0%,2%,3%,?,-26,12µM*
COc1cc(C(=O)NNC(=S)Nc2ccc(S(N)(=O)=O)cc2)cc(OC)c1OC,-8%,5%,1%,4%,7,6.7µM*
COc1ccc(S(=O)(=O)Oc2ccc(C(=S)N3CCOCC3)cc2OC)cc1,5%,2%,-12%,-6%,1,-5%
CC(C)(C)C(=O)O/N=C1/C(=O)N(c2ccccc2)c2ccccc21,2%,0%,-4%,0%,-9,-23%
CC(C)CC(=O)O/N=C1\C(=O)N(c2ccccc2)c2ccccc21,-3%,0%,-10%,-19%,5,30µM*
CCN(CC)CCCNC(=O)C1CCC(CNS(=O)(=O)c2c(C)cc(C)cc2C)CC1 (stereo unspecified),33%,1%,28%,12%,-3,5%
CCCCN(C)CCCNC(=O)C1CCC(CNS(=O)(=O)c2c(C)cc(C)cc2C)CC1 (stereo unspecified),20%,-4%,3%,?,10,21µM*
Cc1ccc(NC(=O)Cn2c(O)c(N=NS(=O)(=O)c3ccc(C)cc3)c3ccccc32)cc1,7%,1%,1%,?,?,27µM*
CCSc1nnc(-c2sc3nnc(-c4ccccc4)c(-c4ccccc4)c3c2N)o1,?,?,-11%,20%,-3,15µM*
CSc1nc(Oc2cccc(C(F)(F)F)c2)cc(C(F)(F)F)n1,-12%,6%,-25%,-23%,4,27µM*
CCc1cc(=O)oc2c(CN3CCN(C)CC3)c(O)ccc12,-33%,?,?,-19%,-8,3%
CN1CCN(Cc2c(O)ccc3cc(Br)ccc23)CC1,1%,1%,-9%,?,-8,24µM*

# Single records, from the list above. Values in the order: Rango release inh | Rango complex inh | GCN5L2 inh | VDR inh | PI5P4Ka inh | PLK1 PBD block
# `C#CCOCCOCCOCCNc1nc(N2CCN(C(=O)CCCCCCCCCCNC(=O)[C@H](CCCCN)n3cc(C[C@@H](C)CC)nn3)CC2)nc(N2CCN(C(=O)CCCCCCCCCCNC(=O)[C@H](CCCN=C(N)N)n3cc(C[C@@H](C)CC)nn3)CC2)n1` is entered as ? | 65µM* | -13% | 76% | -90* | 9%
# `Cc1ccc(NC(=O)Cn2c(O)c(N=NS(=O)(=O)c3ccc(C)cc3)c3ccccc32)cc1` is entered as 7% | 1% | 1% | ? | ? | 27µM*
# `CN1CCN(Cc2c(O)ccc3cc(Br)ccc23)CC1` is entered as 1% | 1% | -9% | ? | -8 | 24µM*

# Additional compounds
SMILES,Rango release inh,Rango complex inh,GCN5L2 inh,VDR inh,PI5P4Ka inh,PLK1 PBD block
CC(OC(=O)c1ccccc1O)C(=O)Nc1ccc(Cl)cn1 (stereo unspecified),-13%,0%,0%,?,-27,19µM*
CC(OC(=O)c1ccco1)C(=O)Nc1ccc(Cl)cn1 (stereo unspecified),10%,-1%,-3%,-7%,-8,3%
Cc1cccc(C)c1NC(=O)c1nc(SC(C)C)ncc1Cl,.,.,-1%,5%,.,.
COc1cc2c(cc1O)CCN[C@@]21CS[C@H]2c3c(OC(C)=O)c(C)c4c(c3C(COC1=O)N1C2C2c3c(cc(C)c(OC)c3O)CC([C@@H]1O)N2C)OCO4 (stereo partly specified),.,.,-20%,?,.,.
CCOC(=O)c1sc(NC(=O)c2ccc(OC)cc2)nc1C,13%,2%,-8%,19%,-1,7%
CCOC(=O)c1sc(=S)n(-c2ccccc2Cl)c1C,-4%,0%,-16%,-6%,3,0%
CCOC(=O)c1sc(=S)n(C)c1NC(=O)c1ccccc1Cl,-2%,-4%,0%,?,-17,12µM*
CCOC(=O)c1sc(=S)n(C)c1NC(=O)c1ccc(OC)cc1,11%,5%,?,50µM*,?,3.4µM*
CN(C)CCNC(=O)c1ccc(-n2c(-c3ccccc3)cc3c2CCCC3)cc1,.,.,-3%,-6%,.,.
COc1cc(/C=C/c2nc3cc(Cl)ccc3c(=O)n2-c2ccc(C)cc2C)cc(OC)c1OC,.,.,1%,12%,.,.
COC(=O)C1(C(=O)OC)Cc2ccccc2N(S(=O)(=O)c2ccc(C)cc2)C1CC(C)=O (stereo unspecified),.,.,.,.,8,-9%
COC(=O)C1(C(=O)OC)CC2=C[C@H](CC2=O)Cc2ccccc2[C@@H]1C[N+](=O)[O-],.,.,.,50µM*!,.,.
COc1ccc(-c2cc(=S)ss2)cc1,.,.,-14%,40µM*,.,.
CCNC(=O)Nc1ccc2c(c1)c(=O)n(C)n2CC=C(C)C,.,.,.,.,1,-19%
CCNC(=S)Nc1ccc2c(c1)c(=O)n(C)n2CC=C(C)C,.,.,.,.,-6,21µM*

# Marked active in Rango complex inh, among the entries above:
SMILES,Rango release inh,Rango complex inh,GCN5L2 inh,VDR inh,PI5P4Ka inh,PLK1 PBD block
C#CCOCCOCCOCCNc1nc(N2CCN(C(=O)CCCCCCCCCCNC(=O)[C@H](CCCCN)n3cc(C[C@@H](C)CC)nn3)CC2)nc(N2CCN(C(=O)CCCCCCCCCCNC(=O)[C@H](CCCN=C(N)N)n3cc(C[C@@H](C)CC)nn3)CC2)n1,?,65µM*,-13%,76%,-90*,9%

# Compound activity as filed in PubChem.
